Laboratory results: ChEMBL document CHEMBL1949595, “Fluorinated ΔF508-CFTR correctors and potentiators for PET imaging” (Bioorg Med Chem Lett, 2012)

Assay: Potentiation activity at human CFTR delta F508 mutant-mediated iodine flux expressed in rat FRT cells coexpressing fluorescent protein YFP-H148Q/1152L by fluorescence assay
Format: cell-based

- EC50: 7 µM
SMILES: O=c1c(-c2ccc(O)cc2)coc2cc(O)cc(O)c12 [GENISTEIN]
